Molecules are shown by their SMILES. Only a part is listed here, and it is no random draw. Some of these compounds have results that are not shown, active ones among them. Activity calls are given as the source filed them. No stated cut-off is given here; in the data, active means inhibition above about 30% (passing the limit was not always enough); inactive means the rest.

In this assay the test system is MgrA (MarR family transcriptional regulator), Staphylococcus aureus Newman. The assay is described as follows: S. aureus MgrA activity modulators, primary screen, biochemical, S. aureus Newman, fluorescence polarization (AID 602314).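 Further: 0% = protein plus DNA without compound and 100% = DNA alone without protein; higher means less MgrA bound to DNA so lower polarization.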 Particulars: MgrA-DNA binding, hits give high values, concentration not given here.
Take `O=C(OC1CN2CCC1CC2)C(CO)(c1ccccc1)c1ccccc1` (configuration not stated): the inhibition was inactive: -3.55%.

`CN1C2CCC1CC(OC(=O)C(O)(c1ccccc1)c1ccccc1)C2` (configuration not stated): the inhibition was inactive: -0.55%.

For the origin of these results see PubChem BioAssay AID602314 (ICCB-Longwood Screening Facility, Harvard Medical School, 2012).
